Reference: US20240209092A1, “COMBINATION THERAPIES FOR TREATING CANCER” (ADAGENE INC., priority 2021, published 2024)

What was measured:
[1] = Single dose pharmacokinetics in mice; assay type: in vivo; conditions: single dose 10 mg/kg
[2] = system: 4T1 murine breast cancer cells; test: 4T1 cancer model, TY22404 with ADG106; assay type: in vivo, mice; conditions: Day 33; 5 mg/kg TY22404 and/or ADG106 i.p. biweekly, four doses
monkey CTLA4 = test: ELISA binding to recombinant cynomolgus monkey CTLA4; conditions: masked antibody
rat CTLA4 = target: T1, rat CTLA4 (Rattus norvegicus, UniProt Q62859); test: ELISA binding to recombinant rat CTLA4; conditions: masked antibody
T1 construct: recombinant CTLA4 proteins (extracellular domain) of human, cynomolgus monkey, mouse or rat origin
T1 sequence (Q62859 36-161): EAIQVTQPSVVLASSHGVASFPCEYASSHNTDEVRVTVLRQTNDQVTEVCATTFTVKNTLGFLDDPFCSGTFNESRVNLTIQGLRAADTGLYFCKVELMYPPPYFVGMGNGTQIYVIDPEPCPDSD

[3] = system: CT26 murine colon cancer cells; test: CT26 murine colon cancer model, monotherapy; assay type: in vivo, BALB/c mice; conditions: 5 mg/kg i.p. twice a week, six doses; mono therapy
[4] = system: H22 murine liver cancer cells; test: H22 murine liver cancer model, monotherapy; assay type: in vivo, BALB/c mice; conditions: 5 mg/kg i.p. twice a week, six doses; mono therapy
[5] = system: Lewis murine lung tumor cells; test: Lewis lung cancer model, combination with anti-PD-1; assay type: in vivo, mice; conditions: 14 days after start of dosing; TY21580 or TY22404 2 mg/kg, FC1225 10 mg/kg, i.p. biweekly, four doses
[6] = Phase 1 dose escalation study, safety; assay type: in vivo, human
human CTLA4 [7] = test: Promega cell-based CTLA4 blockade bioassay (CD28 signaling activation); conditions: Jurkat CTLA4 effector cells co-cultured with aAPC/Raji cells
[8] = mouse, in vivo
mouse CTLA4 = target: T2, mouse CTLA4 (Mus musculus, UniProt P09793); test: ELISA binding to recombinant mouse CTLA4; conditions: masked antibody
T2 construct: recombinant CTLA4 proteins (extracellular domain) of human, cynomolgus monkey, mouse or rat origin

advanced solid tumors = test: Phase 1 dose escalation study, tumor response case studies; assay type: in vivo, human
[9] = Toxicology in nonobese diabetic (NOD) mouse model; assay type: in vivo; conditions: six treatments at 50 mg/kg
human CTLA4 [10] = test: ELISA binding to recombinant human CTLA4; conditions: masked antibody
[11] = Phase 1 biomarker analysis, peripheral immune cell profiling (TBNK FACS panel); assay type: in vivo, human; conditions: some patients
[12] = system: MC38 murine colon tumor cells; test: MC38 cancer model, TY22404 with ADG106; assay type: in vivo, mice; conditions: Day 27 post tumor cell inoculation; 5 mg/kg each, i.p. biweekly four doses
[13] = Single dose pharmacokinetics in cynomolgus monkeys; assay type: in vivo; conditions: single dose 10 mg/kg
[14] = 4-week GLP repeat-dose toxicology study in cynomolgus monkeys; assay type: in vivo
[15] = system: 293F overexpressing human CTLA4; test: ADCC reporter gene assay; assay type: cell-based; conditions: 293F-CTLA4 target cells, Jurkat-NFAT-CD16 effector cells
[16] = Phase 1 biomarker analysis, serum cytokines (MSD V-Plex); assay type: in vivo, human
Treg cells [17] = test: Dose dependent Treg depletion in CT26 murine colon cancer model; assay type: in vivo, BALB/c mice
Treg cells [18] = test: Treg depletion in CT26 murine colon cancer model; assay type: in vivo, BALB/c mice
[19] = ovarian cancer patient, 1 mpk, assessment after every two cycles
[20] = 5 mg/kg i.p. Day 9 and Day 12, analysis Day 14

B1: TY22404: activatable anti-CTLA4 fully human IgG1 antibody prodrug (SAFEbody); heavy chain SEQ ID NO:320, masked light chain SEQ ID NO:322 (antibody)
heavy: EVQLVESGGGLVQPGGSLRLSCAASGYSISSGYHWSWIRQAPGKGLEWLARIDWDDDKYYSTSLKSRLTISRDNSKNTLYLQLNSLRAEDTAVYYCARSYVYFDYWGQGTLVTVSSASTKGPSVFPLAPSSKSTSGGTAALGCLVKDYFPEPVTVSWNSGALTSGVHTFPAVLQSSGLYSLSSVVTVPSSSLGTQTYICNVNHKPSNTKVDKKV[gap - human IgG1 Fc]
light: EVGSYPNPSSDCVPYYYACAYSGRSAGGGGTPLGLAGSGGSDIQLTQSPSSLSASVGDRVTITCRASQSVRGRFLAWYQQKPGKAPKLLIYDASNRATGIPSRFSGSGSGTDFTLTISSLQPEDFATYYCQQSSSWPPTFGQGTKVEIKRTVAAPSVFIFPPSDEQLKSGTASVVCLLNNFYPREAKVQWKVDNALQSGNSQESVTEQDSKDSTYSLSSTLTLSKADYEKHKVYACEVTHQGLSSPVTKSFNRGEC
half-life compared with TY21580 [1]: extended half-life
systemic exposure compared with TY21580 [1]: higher systemic exposure
TGI vs vehicle control [2]: 49%
binding to recombinant CTLA4 protein, in words (monkey CTLA4): quite low affinities
binding to recombinant CTLA4 protein, in words (rat CTLA4): quite low affinities
anti-tumor efficacy (tumor volume) [3]: very strong anti-tumor efficacy
anti-tumor efficacy (tumor volume) [4]: very strong anti-tumor efficacy
Tumor growth inhibition (TGI) relative to isotype control [5]: 18%
tolerability ([6]; 16 patients, 0.1, 0.3, 1, 3 and 10 mg/kg, as of Nov. 30, 2021): well tolerated
number of treatment-related ≥Grade 3 AE (Grade 3 fatigue) ([6]; 16 patients, 5 dose escalation cohorts): 1
dose limiting toxicity (DLT) ([6]; up to 10 mg/kg Q3W): No DLT
CTLA4 blockade mediated reporter (luminescent) signaling (human CTLA4 [7]): can't induce the downstream luminescent cell signaling
mice with cleaved form detected in tumor [8]: 2/3
binding to recombinant CTLA4 protein, in words (mouse CTLA4): quite low affinities
tumor shrinkage (advanced solid tumors; UV melanoma patient who failed ipilimumab plus nivolumab, after two cycles): −24%
change of CA125, first value (advanced solid tumors; ovarian cancer patient, 1 mpk): −18%
change of CA125, second value (advanced solid tumors; ovarian cancer patient, 1 mpk): −67%
change of CA125, third value (advanced solid tumors; ovarian cancer patient, 1 mpk): −77%
change of targeted tumor lesions, first value (advanced solid tumors; [19]): −13%
change of targeted tumor lesions, second value (advanced solid tumors; [19]): −19%
change of targeted tumor lesions, third value (advanced solid tumors; [19]): −22%
abnormal findings attributable to TY22404 [9]: No abnormal findings
survival [9]: all mice survived
binding to recombinant CTLA4 protein, in words (human CTLA4 [10]): quite low affinities
absolute counts of CD4+, CD8+ T and NK cells relative to base level [11]: transient increased
Tumor growth inhibition (TGI) relative to isotype control [12]: 77%
half-life compared with TY21580 [13]: extended half-life
systemic exposure compared with TY21580 [13]: higher systemic exposure
adverse, but reversible, microscopic findings ([14]; 200 mg/kg, both sexes, multiple organs and tissues): minimal to moderate mixed perivascular infiltrates
highest non-severely toxic dose (HNSTD) ([14]; cynomolgus monkeys): 200 mg/kg/dose
tolerability ([14]; intravenous infusion 5, 30 and 200 mg/kg/dose once weekly for five doses, 28-day recovery): well tolerated
ADCC reporter gene activity [15]: no ADCC reporter gene activity
TNF-α abundance in serum relative to base level ([16]; patient 6105-004, 1 mg/kg, during treatment): dramatic increase
abundance of IFN-γ in serum relative to base level ([16]; patient 6105-005, 3 mg/kg, C1D8 to C2D1): increased significantly
levels of IFN-γ and/or TNF-α overall ([16]; some patients): transient increased levels
CTLA-4 expression levels on peripheral (spleen) Treg cells (Treg cells [17]; 5, 1 and 0.2 mg/kg i.p.): not changed
percentage of Tregs in CD4 T cells in spleen (Treg cells [17]; 5, 1 and 0.2 mg/kg i.p.): did not reduce
percentage of Tregs in CD4+ T cells in TILs vs isotype Ctrl (Treg cells [17]; 5, 1 and 0.2 mg/kg i.p. Day 9 and Day 12, analysis Day 14, dose dependent): significantly reduced
CTLA-4 expression levels on Treg cells in TILs (Treg cells [17]; 5, 1 and 0.2 mg/kg i.p., dose dependent): significantly decreased
CTLA4 expression levels on Treg cells in TILs (Treg cells [18]; 5 mg/kg i.p.): significantly decreased
CTLA4 expression levels on peripheral Treg cells (PBMC) (Treg cells [18]; 5 mg/kg i.p.): slightly upregulated
CTLA4 expression levels on peripheral Treg cells (spleen) (Treg cells [18]; 5 mg/kg i.p.): not changed
percentage of Tregs in CD4+ T cells in TILs vs isotype Ctrl (Treg cells [18]; [20]): significantly reduced
percentage of Tregs in CD4+ T cells in peripheral lymphocytes in blood and spleen (Treg cells [18]; [20]): did not influence
